Ki data for one compound are collected here from US6569867B2, “Polyketide derivatives” (Kosan Biosciences, Inc., priority 1999, dated 2003).

The assay addresses calcineurin. Kind of assay: Calcineurin phosphatase inhibition assay (FKBP-compound complex). As to conditions: 15 nM calcineurin, 30 nM calmodulin, 1 uM phospho-RII peptide, 30° C. Format: biochemical. As for the experimental part: The catalytic subunit of protein kinase A was used to transfer the labeled phosphate from [γ-^32P]ATP to […] of the RII peptide. […] Fractions were collected and monitored by scintillation counting. […] The columns were prepared by resuspending the resin in water such that there was one volume of water above each volume of settled resin. The slurry (1 mL) was then pipetted into each column, followed by 10 mL of water. The bed volume was verified, then each column was washed with 1 mL 1 N NaOH, 2 mL 1 N HCl, and 4 mL water. Quenched reaction mixtures were applied to the columns, washed twice with 750 uL of water and the eluate was collected directly into scintillation vials. Scintiverse BD (15 mL) was added to each vial, and ^32PO4 was quantitated by scintillation counting. […] Following a 30 minute preincubation, reactions were initiated by addition of the phospho-RII peptide substrate to 1 uM and incubated at 30° C. Aliquots were removed at 3 and 35 minutes, quenched, and PO4 release was measured as described above.

A word on the Ki: it is a dissociation constant, usually derived from enzyme kinetics or from competition with a known ligand. Consider `CC[C@@H]1/C=C(\C)C[C@H](C)C[C@H](OC)[C@H]2O[C@@](O)(C(=O)C(=O)N3CCCC[C@H]3C(=O)O[C@H](/C(C)=C/[C@@H]3CC[C@@H](O)[C@H](OC)C3)[C@H](C)[C@@H](O)CC1=O)[C@H](C)C[C@@H]2OC` [FK-520, ascomycin, reference compound], for which the Ki came to 49 nM.
